AlphaSeq binding of Ab-14 light chain variants to a spike HR2 peptide

Target peptide (SARS-CoV-2 spike, HR2 region): PDVDLGDISGINAS

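Phage display of a naive human antibody library on the peptide gave the parent. Designed CDR sequences, proposed from the first random library and measured here. Their group label is 14L_GP_Gibbs (GP: Gaussian process model; Gibbs: Gibbs sampling; a sequence that several methods proposed may carry one label only). The scFvs were displayed on barcoded MATa yeast, the peptide on MATalpha yeast. Pairs that bind mate more often; barcode pairs of the diploids are counted by sequencing. Each replicate has its own calibration line, from reference interactions of the BCL2 family. The assay was run in six technical replicates.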

Ab-14 is the parent antibody, in scFv form: VH, then three GGGGS repeats, then VL. The heavy chain is unchanged in all variants.
VH: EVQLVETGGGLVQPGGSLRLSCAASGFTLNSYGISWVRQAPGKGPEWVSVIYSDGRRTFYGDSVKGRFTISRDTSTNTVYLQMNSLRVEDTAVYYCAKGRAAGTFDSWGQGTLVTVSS
VL: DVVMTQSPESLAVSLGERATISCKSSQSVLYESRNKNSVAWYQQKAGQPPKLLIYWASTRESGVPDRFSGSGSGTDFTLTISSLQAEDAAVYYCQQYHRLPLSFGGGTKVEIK

The parent's light chain CDRs are KSSQSVLYESRNKNSVA, WASTRES, QQYHRLPLS; each variant's own CDRs replace them letter for letter. The read-out is the apparent dissociation constant on a log10 scale (nM): the lower, the stronger. The mean shown is taken over the replicates in which the pair was detected. A pair that was not seen in that replicate is written "nd"; this usually means weak binding, but a binder can also be missed.

| CDR-L1 | CDR-L2 | CDR-L3 | log10 Kd (nM) by replicate | mean log10 Kd (nM) | control signals |
|---|---|---|---|---|---|
| KVSCSVMLESRNWNAVA | EASTRES | QDYHRLPLS | 0.56 / 0.68 / 0.75 / 0.83 / 0.66 / 0.70 | 0.70 | 0/18 |
| KMQQSVWYEQRNFNSVA | DGSTREQ | QQYHRLPLS | 0.09 / 0.33 / 0.07 / -0.24 / 0.02 / 0.17 | 0.07 | 0/18 |
| KQQILVEQESRQKNSVA | NASTRCE | QQYHRLPLS | 1.36 / 0.87 / 0.92 / 0.98 / 0.87 / 1.41 | 1.07 | 1/18 (3.42) |
| KLVGSWLYESRNKNSVA | HASQRCS | QQYHRLPLS | 0.80 / 0.49 / 0.45 / 0.48 / 0.49 / 0.83 | 0.59 | 0/18 |
| SLQQSWLYESRNKNSVA | NASTREW | QQYHRLPLS | 0.24 / -0.02 / 0.22 / -0.08 / 0.00 / -0.12 | 0.04 | 1/18 (4.37) |
| KISQDYEYESRNKNSVA | QASTREV | QQYHRLPLS | 0.22 / 0.07 / 0.03 / 0.81 / 0.73 / 1.66 | 0.58 | 0/18 |
| KQSGQQLYSSRNKNQVA | DASTRES | QQYHRLPLS | 0.83 / 1.01 / 0.69 / 1.00 / 0.81 / 1.12 | 0.91 | 0/18 |
| WLSMSVEQQSRNKNAVA | SASTREL | QQYHRLPLS | 1.03 / 1.11 / 0.58 / 0.30 / 0.45 / 0.52 | 0.67 | 0/18 |
| KHSQYVWLESRNKNSVA | NASTRES | QQYHRLPLS | 0.33 / 0.11 / -0.12 / -0.17 / 0.14 / 0.36 | 0.11 | 0/18 |
| KLSCGVDYESRNKNSVA | GASTRES | QQYHRLPLS | -0.28 / -0.49 / -0.46 / -0.44 / -0.45 / -0.35 | -0.41 | 2/18 (2.41) |
| KLSQSVGYESRMVNNVA | NASTREL | QQYHRLPLS | 0.27 / 0.08 / 0.04 / 0.07 / -0.06 / 0.49 | 0.15 | 0/18 |
| KLQQQSEYGSRNKNSVA | SASTREQ | QQYHRLPLS | 0.24 / -0.10 / -0.28 / -0.08 / -0.07 / -0.03 | -0.05 | 1/18 (3.18) |
| KVSQSMLQESRNFNSVA | HASTREN | QQYHRLPLS | 0.33 / 0.14 / 0.17 / 0.04 / 0.26 / 0.32 | 0.21 | 3/18 (3.66) |
| KVSQGELYESRDWNNVA | NASTREN | QQYHRLPLS | 0.09 / 0.31 / 0.06 / -0.06 / 0.47 / 0.26 | 0.19 | 1/18 (1.89) |
| KLSQQNPYESRMMNSVA | MASQRES | QQYHRLPLS | 1.05 / 1.09 / 0.99 / 1.14 / 1.36 / 1.43 | 1.17 | 0/18 |
| KVDQEVDGQSRNKNSVA | DASCREW | QQYHRLPLS | 0.44 / 0.43 / 0.16 / 0.11 / 0.26 / 0.23 | 0.27 | 3/18 (3.64) |
| KVMQSVLYEDRNVNNVA | NGSTRES | QQYHRLPLS | 0.20 / 0.19 / -0.18 / -0.01 / 0.07 / 0.03 | 0.05 | 0/18 |
| KLSGSDLYESRNSNSVA | QGSTRES | QDYHRLPLS | nd / 1.65 / 1.46 / 1.68 / 1.44 / 1.75 | 1.59 | 0/18 |
| KLDWSVMLWSRNKNSVA | QASTRMS | QDYHRLPLS | -0.07 / -0.20 / 0.17 / -0.04 / 0.38 / 0.10 | 0.06 | 0/18 |
| KLEQSDWLQSRNVNSVA | QASTRES | QQYHRLPLS | -0.05 / 0.21 / 0.15 / 0.03 / 0.23 / 0.32 | 0.15 | 1/18 (2.69) |
| KLMNSMLYESRNVNSVA | NASYRES | QQYHRLPLS | -0.17 / -0.23 / -0.60 / -0.63 / -0.37 / -0.21 | -0.37 | 0/18 |
| KVSQSNGYESRMKNSVA | HASQRES | QQYHRLPLS | 1.92 / nd / 1.89 / nd / nd / 1.65 | 1.82 | 0/18 |
| KLSQSMEYESRNVNSVA | SASTRES | QQYHRLPLS | 0.31 / -0.13 / -0.04 / 0.06 / 0.01 / -0.08 | 0.02 | 1/18 (1.88) |
| KHEEGVWYESRNKNSVA | EASTRES | QQYHRLPLS | 0.93 / 0.68 / 0.71 / 1.06 / 1.08 / 1.28 | 0.96 | 0/18 |
| KSGQGFLYESRNKNSVA | GASMRES | QQYHRLPLS | -0.07 / -0.04 / -0.13 / -0.22 / 0.23 / 0.19 | -0.01 | 0/18 |
| ALSQSHLYESRMKNSVA | NASTREE | QQYHRLPLS | -0.07 / -0.44 / -0.08 / -0.20 / -0.16 / -0.07 | -0.17 | 1/18 (2.47) |
| KFMQSMPYESRNKNSVA | EASTREL | QQYHRLPLS | 0.14 / 0.10 / 0.70 / 0.44 / 0.14 / 0.23 | 0.29 | 1/18 (1.90) |
| HWSQSVPMGERNKNSVA | MASYRES | QQYHRLPLS | 1.64 / 0.91 / 1.19 / 0.90 / 1.02 / 1.17 | 1.14 | 1/18 (1.80) |
| KCDQSWGYESRNKNNVA | NASQRES | QQYHRLPLS | -0.34 / -0.39 / -0.38 / -0.54 / -0.44 / -0.46 | -0.43 | 0/18 |
| KWSQLVLGEERNKMSVA | NASQREE | QQYHRLPLS | 0.27 / 0.03 / 0.34 / 0.30 / 0.00 / 0.29 | 0.20 | 0/18 |
| KFSYSELYEERNQNSVA | GASQRLS | QQYHRLPLS | 0.17 / -0.23 / 0.17 / 0.14 / 0.02 / 0.28 | 0.09 | 0/18 |
| KLQQSVLYEGRNKNSVA | QASTRSD | QQYHRLPLS | -0.16 / -0.07 / -0.38 / 0.23 / 0.06 / -0.20 | -0.09 | 0/18 |
| KLMQSMLYESRNTNSVA | HASRRES | QQYHRLPLS | 0.94 / 0.73 / 0.51 / 0.57 / 0.83 / 0.90 | 0.75 | 2/18 (2.25) |
| KVSPSVQYEDRNCNAVA | QASQRES | QQYHRLPLS | 0.18 / 0.19 / 0.12 / -0.18 / -0.10 / 0.25 | 0.08 | 3/18 (3.32) |
| KVSQSHLYESRNMNSVA | NASTREM | QQYHRLPLS | 0.11 / -0.03 / 0.00 / 0.10 / -0.04 / 0.18 | 0.05 | 3/18 (1.84) |
| KVSQSVLQGQRNKSSVA | EASTRER | QQYHRLPLS | 1.42 / 1.56 / 0.86 / 1.36 / 1.62 / 1.48 | 1.38 | 1/18 (2.62) |
| LLSQSVLLESRNWNAVA | MASTRMD | QQYHRLPLS | 0.50 / 0.59 / 0.64 / 0.67 / 0.02 / 1.10 | 0.59 | 1/18 (2.16) |
| KLQMSNWYESRNKNSVA | DASVRES | QQYHRLPLS | 0.77 / 0.56 / 0.37 / 0.50 / 0.59 / 0.48 | 0.54 | 1/18 (2.54) |
| KFSGSWLYESRNKNSVA | NASTRES | QQYRRLPLS | -0.21 / -0.29 / -0.33 / -0.42 / -0.36 / -0.21 | -0.30 | 1/18 (3.19) |

Extract of 3 entries:

CDR-L1,CDR-L2,CDR-L3,log10 Kd (nM) by replicate,mean log10 Kd (nM),control signals
KLSQSMEYESRNVNSVA,SASTRES,QQYHRLPLS,0.31 / -0.13 / -0.04 / 0.06 / 0.01 / -0.08,0.02,1/18 (1.88)
KMQQSVWYEQRNFNSVA,DGSTREQ,QQYHRLPLS,0.09 / 0.33 / 0.07 / -0.24 / 0.02 / 0.17,0.07,0/18
KFSYSELYEERNQNSVA,GASQRLS,QQYHRLPLS,0.17 / -0.23 / 0.17 / 0.14 / 0.02 / 0.28,0.09,0/18

In the paper, a design with two or fewer of six values counts as a poor binder. Background: pairings of all light chain designs with three empty control strains gave a value in 4% of cases (median 2.64, 5th percentile 1.59). Values in that range, when seen in few replicates, are hard to tell from nonspecific mating. Also given: how often the same scFv was detected with the empty control strains, with their mean in brackets. The range of this assay differs from that of the first round, and the authors advise against merging the two.

Data: MIT Lincoln Laboratory AlphaSeq set, Li et al. 2023, doi:10.1038/s41467-023-39022-2, as distributed in FLAb.